# Screening results (PubChem BioAssay)
# Sampled rows, rich in hits. Any-hit rate of the full collection: about 16%.
# TDP1 cell CPT: growth inhibition of DT40 Tdp1-/-;hTDP1 cells with camptothecin (screen for TDP1 inhibitors); Potency, µM (titrated, usually from 46.2 µM), for the others: top-dose activity change, negative = growth inhibition, usual class: inhibitors; chicken DT40 Tdp1-/-;hTDP1 cells + 20 nM CPT, ATP luminescence, 48 h; 420,000 tested, 12% active; AID 686979; further: potency means the concentration at half of the fitted maximal effect; on the % scale 0 is the no-effect control and ±100 the full control effect; nearly all actives have a fitted effect of over 55% in size
#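 Chicken DT40 Tdp1-/- cells complemented with human TDP1, 400 cells/well, exposed to compounds plus 20 nM camptothecin for at least 48 h at 37 C; viability read as ATP content by CellTiter-Glo luminescence.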
# uPA generation: blocks generation of uPA at the cell surface | cell surface uPA generation assay, qHTS | Potency, µM (series often up to 38.3 µM), for the others: at the highest dose activity change, negative = inhibition, actives largely listed as inhibitors | 330,000 tested, 0.31% active | AID 540303; active means well fitted inhibition curve with a large enough effect; inconclusive means small, poorly fitted or top-dose-only effect; inactive means no such curve, though single readings can be large or run the other way; tested in mouse RAW 264.7 cells; further: potency means the concentration at half of the fitted maximal effect; on the % scale 0 is the no-effect control and ±100 the full control effect; nearly all actives have a fitted effect of over 55% in size
# DT40 TDP1 no CPT: qHTS for Inhibitors of human tyrosyl-DNA phosphodiesterase 1 (TDP1): qHTS in cells in absence of CPT. DT40 Tdp1-/- hTDP1 cells, no CPT, ATP luminescence, 48 h. Potency, µM (series often up to 46.2 µM), inactives show top-dose activity change, negative = growth inhibition, most hits filed as inhibitors. 420,000 tested, 15% active; further: potency means the concentration at half of the fitted maximal effect; on the % scale 0 is the no-effect control and ±100 the full control effect; nearly all actives have a fitted effect of over 55% in size
#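 A cellular qHTS used chicken DT40 cells lacking endogenous Tdp1 but carrying stably transfected human TDP1. Compounds were applied without camptothecin, and cell growth kinetics were judged by ATP-dependent luminescence after ≥48 hr.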
# miR-21 FLuc: miR-21 reporter, rising signal | 340,000 tested, under 10 active | AID 2288 | HeLa miR-21 FLuc reporter, luciferase, 48 h | Potency, µM (titrated, usually from 38.3 µM), for inactives: at the highest dose reporter change, positive = more light; active = well fitted rising curve with a large enough effect; inconclusive = small, poorly fitted or top-dose-only effect; inactive = no such curve, though single readings can be large or run the other way;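 further: % of control where 0% means no effect; miR-21 action dims this reporter so a rising signal means less miR-21 action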
#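 Luminescence from a firefly luciferase reporter carrying a miR-21 binding site downstream, stably expressed under a CMV promoter in HeLa cells that make miR-21 endogenously, reports miRNA modulation after 48 h compound exposure up to approximately 40uM final.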
# TDP1 inh: inhibitors of human tyrosyl-DNA phosphodiesterase TDP1; 350,000 tested, 0.28% active; recombinant TDP1, AlphaScreen DNA substrate cleavage; Potency, µM (highest dose often 130 µM), for the others: top-dose activity change, negative = inhibition, hits mostly inhibitors; Q9NUW8; further: potency means the concentration at half of the fitted maximal effect; on the % scale 0 is the no-effect control and ±100 the full control effect; nearly all actives have a fitted effect of over 40% in size
#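 Signal: AlphaScreen proximity between streptavidin donor and anti-FITC acceptor beads on intact substrate. Reaction: Tdp1 1 nM, substrate 15 nM final, 5 min RT after 15 min compound preincubation.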
# An asterisk follows results filed as active; u = inconclusive; x = no result; [ ] = dose if it differs, or a comment. Unless noted, the call rests on the fitted dose curve; in most records, active means well fitted curve in the direction sought with a large enough effect; inconclusive means small, poorly fitted or top-dose-only effect, or another doubt; inactive means no such curve, though single readings can be large; an effect the other way counts as inactive or inconclusive.
nr | Structure | TDP1 cell CPT | miR-21 FLuc | TDP1 inh
1 | COc1cccc(/C=C2\SC(=S)N(CCC(=O)N3CCCCC3)C2=O)c1 | 6.5µM* | 4% | 5%[56.1 µM]
2 | COc1cccc(/C=C2/SC(=S)N(CCCC(=O)Nc3ccc(O)cc3)C2=O)c1 | u | u | 5%
3 | CCOC(=O)N1CCN(C(=O)CCN2C(=O)/C(=C\c3cccc(OC)c3)SC2=S)CC1 | -96% | -4% | x
4 | COc1ccc(S(=O)(=O)N[C@H](C(=O)N2CC[C@@]3(O)CCCC[C@H]3C2)c2ccccc2)cc1 | u | -1% | 2%
5 | COc1ccccc1C(=O)Nc1sc(Nc2ccccc2)nc1C(N)=O | 12µM* | 0% | 0%
6 | NC(=O)c1nc(Nc2ccccc2)sc1NC(=O)c1ccccc1Br | u | 1% | 0%
7 | C=CCc1cc(/C=C2/NC(=S)NC2=O)cc(OC)c1O | 15µM* | 2% | 2%
8 | COc1ccc(C=CC(=O)C=CC=Cc2ccccc2)cc1 | u | x | x

nr | DT40 TDP1 no CPT | uPA generation
1 | 4.1µM* | -13%
2 | u | u
3 | 15µM* | -1%
4 | u | -2%
5 | 6.5µM* | x
6 | 21µM* | x
7 | 21µM* | -10%
8 | u | 1%

# (further entries)
nr | Structure | TDP1 cell CPT | miR-21 FLuc | TDP1 inh
9 | CCc1c(CN2CCN(c3ccccc3F)CC2)csc1C | u | -1% | 5%
10 | Cc1scc(CN2CCN(c3ccc(F)cc3)CC2)c1C | u | 3% | 3%
11 | C[C@@H](NC(=O)c1nc[nH]c1C(=O)NC1CCN(C(=O)OC(C)(C)C)CC1)c1ccccc1 | u | x | 1%
12 | CC(=O)O[C@H]1CC(C)(C)C(=C=C/C(C)=C/C=C/C(C)=C/C=C/C=C(C)/C=C/C=C(\C)C(=O)C[C@@]23O[C@]2(C)C[C@@H](O)CC3(C)C)[C@](C)(O)C1 | 26µM* | 4% | 1%
13 | CC(C)[C@H](CO)Nc1nc(NCc2ccc(S(N)(=O)=O)cc2)c2ncn(C(C)C)c2n1 | u | u | 8%
14 | COc1cc(NC(=O)c2ccccc2)c(OC)cc1NC(=O)CN1C(=O)N(C)C2(CCCCC2)C1=O | u | x | 2%
15 | c1coc(C2=Nc3cccc4cccc(c34)N2)c1 | 15µM* | 1% | -5%
16 | Nc1ccc(C2=Nc3cccc4cccc(c34)N2)cc1 | -6% | -11% | -6%

nr | DT40 TDP1 no CPT | uPA generation
9 | 21µM* | x
10 | u | x
11 | u | 26%
12 | u | u
13 | u | 8%
14 | -13% | 2%
15 | 23µM* | -4%
16 | u | -11%

# (more compounds)
nr | Structure | TDP1 cell CPT | miR-21 FLuc | TDP1 inh
17 | CC1=Nc2cccc3cccc(c23)N1 | u | -11% | 10%
18 | COc1ccccc1CCNC(=O)CCCn1nc(C)c2c(C)n(-c3ccc(C)cc3)nc2c1=O | u | 0% | 2%
19 | O=C(CO/N=C/c1ccc(OC(F)F)cc1)NC1CCCCC1 | u | -10% | 0%
20 | CCN(CC(=O)NC(C)(C)C)C(=O)COc1c(Cl)cc(Cl)c2ccc(C)nc12 | 23µM* | 28% | 2%
21 | O=C(CN1CCN(C(=O)c2ccccc2Cl)CC1)Nc1cccc(S(=O)(=O)N2CCCC2)c1 | u | x | x
22 | CCOc1ccccc1N1CC(C(=O)N2CCc3ccccc32)CC1=O (configuration not stated) | u | -4% | -1%
23 | CCOc1ccccc1N1CC(C(=O)N2CCc3ccccc3C2)CC1=O (configuration not stated) | 16µM* | -9% | 0%
24 | CCOc1ccccc1N1CC(C(=O)NNC(=O)c2cc(OC)c(OC)c(OC)c2)CC1=O (configuration not stated) | 7% | x | -3%

nr | DT40 TDP1 no CPT | uPA generation
17 | 23µM* | -4%
18 | u | 4%
19 | -28% | -10%
20 | 13µM* | -27%
21 | -24% | -9%
22 | u | -2%
23 | 15µM* | 1%
24 | 3.7µM* | 6%

# Next section.
nr | Structure | TDP1 cell CPT | miR-21 FLuc | TDP1 inh
25 | CCOc1ccc2nc(N3CCCC(C(=O)NCCCN4C(C)CCCC4C)C3)sc2c1 (configuration not stated) | u | -45% | 2%
26 | Cc1ccc(CNCC(O)(c2ccccc2)c2ccc(F)cc2)cc1 (configuration not stated) | u | 6% | -7%
27 | OC(CNCc1ccc(F)cc1)(c1ccccc1)c1ccc(F)cc1 (configuration not stated) | u | 5% | 6%
28 | Cc1ccc(CNCC(O)(c2ccc(F)cc2)c2ccc(F)cc2)cc1 | 21µM* | 5% | 1%
29 | OC(CNCc1ccccc1)(c1ccc(F)cc1)c1ccc(F)cc1 | u | 12% | 0%
30 | COc1ccccc1NC(=O)Cn1nnc(-c2ccccc2NS(=O)(=O)c2ccccc2)n1 | 13µM* | 14% | 3%
31 | COc1ccc(NC(=O)Cn2nnc(-c3ccccc3NS(=O)(=O)c3ccc(OC)cc3)n2)cc1 | u | 26% | 5%
32 | O=C(Cn1nnc(-c2ccccc2NC(=O)c2ccccc2)n1)Nc1ccc2c(c1)OCCO2 | u | -4% | 4%

nr | DT40 TDP1 no CPT | uPA generation
25 | u | -8%
26 | 21µM* | 0%
27 | u | -3%
28 | u | -8%
29 | 18µM* | 0%
30 | 18µM* | 6%
31 | u | -4%
32 | -25% | 0%

# For reference, five of the compounds above:
nr | Structure | TDP1 cell CPT | miR-21 FLuc | TDP1 inh
15 | c1coc(C2=Nc3cccc4cccc(c34)N2)c1 | 15µM* | 1% | -5%
16 | Nc1ccc(C2=Nc3cccc4cccc(c34)N2)cc1 | -6% | -11% | -6%
17 | CC1=Nc2cccc3cccc(c23)N1 | u | -11% | 10%
18 | COc1ccccc1CCNC(=O)CCCn1nc(C)c2c(C)n(-c3ccc(C)cc3)nc2c1=O | u | 0% | 2%
19 | O=C(CO/N=C/c1ccc(OC(F)F)cc1)NC1CCCCC1 | u | -10% | 0%

nr | DT40 TDP1 no CPT | uPA generation
15 | 23µM* | -4%
16 | u | -11%
17 | 23µM* | -4%
18 | u | 4%
19 | -28% | -10%

# Remaining list, next part
nr | Structure | TDP1 cell CPT | miR-21 FLuc | TDP1 inh
33 | Cc1ccccc1C(=O)Nc1ccccc1-c1nnn(CC(=O)Nc2ccc3c(c2)OCCO3)n1 | 23µM* | -4% | 3%
34 | CCOC(=O)Cn1nnc(-c2cc(OC)c(OC)c(OC)c2)n1 | -2% | -2% | 4%
35 | COc1ccc(C(=O)Cn2nnc(-c3ccccc3NC(=O)C3CC3)n2)cc1 | 18µM* | -3% | 6%
36 | COc1cc(-c2nnn(CC(=O)Nc3ccc(OC(F)(F)F)cc3)n2)cc(OC)c1OC | 21µM* | u | -2%
37 | CCCNC(=O)C(Cc1ccc(C(F)(F)F)cc1)NC(=O)c1ccc2ccccc2n1 (configuration not stated) | u | x | 1%
38 | CC(=O)NS(=O)(=O)c1ccc(N=c2ssc3c2-c2cc(C)ccc2NC3(C)C)cc1 | -25% | -5% | 8%
39 | CCOc1ccc(-n2ccnc2SCC(=O)Nc2ccc3c(c2)OCO3)cc1 | 4% | 6% | 10%
40 | Cn1cnc2cc(NCc3ccccc3O)ccc21 | 8% | -41% | 7%

nr | DT40 TDP1 no CPT | uPA generation
33 | 15µM* | x
34 | 0% | 1%
35 | 16µM* | 5%
36 | 7.3µM* | x
37 | u | 20%
38 | u | -2%
39 | -21% | x
40 | 5% | 1%

# The list continues:
nr | Structure | TDP1 cell CPT | miR-21 FLuc | TDP1 inh
41 | CCCC(=O)Nc1ccccc1-c1nnn(CC(=O)Nc2ccc(OCC)cc2)n1 | u | 0% | 5%
42 | Cc1ccc(NC(=O)Cn2nnc(-c3ccccc3NC(=O)c3cccs3)n2)cc1 | 0.65µM* | 24% | 5%
43 | CCOc1ccc(NC(=O)Cn2nnc(-c3ccccc3NC(=O)CC)n2)cc1 | u | 6% | -2%
44 | Cc1c(C(=O)NNC(=O)c2ccncc2)oc2ccc(Br)cc12 | -7% | x | x
45 | COc1c(-c2coc3cc4c(cc3c2=O)CC(OC(C)=O)C(C)(C)O4)ccc2c1C=CC(C)(C)O2 (configuration not stated) | 1.3µM* | x | 10%[56.1 µM]

nr | DT40 TDP1 no CPT | uPA generation
41 | 21µM* | -6%
42 | 0.82µM* | -11%
43 | 16µM* | 5%
44 | -2% | 0%
45 | 0.92µM* | x
